Reference: PubChem BioAssay AID598 (SRMLSC, 2007)
The list shows a part of the results, in another mix than the full data. Activity calls are given as the source filed them.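 The calls were made as follows: active = viability at or below 40%; inactive = viability above 40%.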

Assay: proliferation blockers of H69AR lung cancer cells, primary screen, cell-based, human, 86K library (AID 598);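 also: multidrug resistant small cell line overexpressing MRP-1 efflux transporter; 100% = mean luminescence of untreated control wells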
Details: H69AR lung tumor viability, ATP luminescence, 72 h; at 10 µM; stronger effect = lower value

| Structure (SMILES) | viability |
| --- | --- |
| CN(C)CCOC(=O)C(O)(c1ccccc1)C1CCCCC1 (stereo unspecified) | inactive: 98% |
| CP(=O)(Nc1ccc2c(c1)OCCO2)Oc1ccccc1 (stereo unspecified) | inactive: 95% |
| Cc1ccccc1NP(C)(=O)Nc1ccccc1C | inactive: 90.5% |
| CP(=O)(Nc1ccccc1F)Oc1ccccc1 (stereo unspecified) | inactive: 93.2% |
| CCN(CC)CCCOC(=O)C(O)(c1ccccc1)C1CCCCC1 (stereo unspecified) | inactive: 83.8% |
| CP(=O)(Nc1ccccc1)Oc1ccc(F)cc1 (stereo unspecified) | inactive: 96.8% |
| COc1ccccc1OP(C)(=O)Nc1ccc(C)c(C)c1 (stereo unspecified) | inactive: 89.9% |
| Cc1nc2ccc3ccccc3c2o1.O=[N+]([O-])c1cc([N+](=O)[O-])c(O)c([N+](=O)[O-])c1 | inactive: 100% |
| COc1ccc(OP(C)(=O)Nc2ccccn2)cc1 (stereo unspecified) | inactive: 97.3% |
| CN(C)CCOC(=O)C(O)(c1ccccc1)C1CCCC1 (stereo unspecified) | inactive: 104% |
| Cc1c(NP(C)(=O)Oc2ccc(C(C)C)cc2)c(=O)n(-c2ccccc2)n1C (stereo unspecified) | inactive: 89.4% |
| CP(=O)(Nc1ccccn1)Oc1ccccc1 (stereo unspecified) | inactive: 89.9% |
| COc1ccccc1OP(C)(=O)Nc1ccc(C)cc1C (stereo unspecified) | inactive: 78.8% |
| CCc1ccc(OP(C)(=O)O)cc1 | inactive: 93.6% |
| COc1ccccc1OP(C)(=O)Nc1c(C)n(C)n(-c2ccccc2)c1=O (stereo unspecified) | inactive: 91.3% |
| CP(=O)(Oc1ccccc1)N1CCOC1=O (stereo unspecified) | inactive: 104% |

| Structure (SMILES) | viability |
| --- | --- |
| CC(C)(C)c1ccc(OP(C)(=O)O)cc1 | inactive: 101% |
| CP(=O)(Nc1ccc(Cl)cc1)Oc1ccc(F)cc1 (stereo unspecified) | inactive: 106% |
| CP(=O)(OC12CC3CC(CC(C3)C1)C2)OC12CC3CC(CC(C3)C1)C2 | inactive: 96.6% |
| CP(=S)(Nn1cnnc1)Oc1ccccc1 (stereo unspecified) | inactive: 86.1% |
| CP(=O)(NC(=O)Nc1ccccc1)Oc1ccccc1 (stereo unspecified) | inactive: 96.7% |
| CCOP(C)(=S)SCC(=O)NC(C)C(=O)O (stereo unspecified) | inactive: 91.7% |
| CP(=O)(Nc1ccccn1)Oc1ccc(Cl)cc1 (stereo unspecified) | inactive: 101% |
| COc1ccccc1OP(C)(=O)Nc1ccc(C)cc1 (stereo unspecified) | inactive: 82.8% |
| Cc1ccc(NP(C)(=O)Oc2ccccc2)c(C)c1 (stereo unspecified) | inactive: 101% |
| COc1ccc(OP(C)(=O)Nc2cccc(F)c2)cc1 (stereo unspecified) | inactive: 96.7% |
| Cc1cc(C)cc(OP(C)(=O)Nc2ccc(C)cc2C)c1 (stereo unspecified) | inactive: 95.5% |
| Cc1ccc(C)c(NP(C)(=O)Oc2ccccc2)c1 (stereo unspecified) | inactive: 97.1% |
| Cc1cc(C)cc(OP(C)(=O)Nc2ccccn2)c1 (stereo unspecified) | inactive: 100% |
| Cc1nc2ccc3ccccc3c2s1.O=[N+]([O-])c1cc([N+](=O)[O-])c(O)c([N+](=O)[O-])c1 | inactive: 87.3% |
| COc1ccccc1OP(C)(=O)Nc1c(C)cccc1C (stereo unspecified) | inactive: 96.5% |
